According to patent US12168086B2, “Hemostatic devices and methods of use” (priority 2016, dated 2024):

Test system: blood clotting
Settings: higher amounts of TXA (1.6 mg TXA vs 200 mg of TXA) in the presence of TYRX

**Q.** With `NC[C@H]1CC[C@H](C(=O)O)CC1` [tranexamic acid] as the compound, how does the Clotting time read?
**A.** The Clotting time was “increased”.
